The record followed here is ChEMBL document CHEMBL4627251, “Identification of potent pyrazole based APELIN receptor (APJ) agonists” (Bioorg Med Chem, 2020).

For assay [1], the target named is T1, Apelin receptor (Homo sapiens, UniProt P35414).
T1 sequence (P35414 whole entry): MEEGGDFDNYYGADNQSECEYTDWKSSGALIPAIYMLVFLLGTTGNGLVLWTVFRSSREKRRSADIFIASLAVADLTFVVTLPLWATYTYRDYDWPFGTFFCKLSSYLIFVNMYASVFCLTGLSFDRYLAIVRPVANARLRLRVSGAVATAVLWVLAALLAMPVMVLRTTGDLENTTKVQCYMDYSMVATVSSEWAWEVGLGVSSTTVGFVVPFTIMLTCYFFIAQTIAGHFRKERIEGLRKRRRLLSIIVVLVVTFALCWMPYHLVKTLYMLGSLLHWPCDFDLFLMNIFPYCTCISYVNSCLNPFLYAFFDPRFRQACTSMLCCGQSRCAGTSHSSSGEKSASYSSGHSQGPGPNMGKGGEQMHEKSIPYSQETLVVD

Assay [2] addresses T1, Apelin receptor. This is another data set of the same source.

Broadly, the EC50 is the concentration giving half of the maximal effect. Low readings indicate a more potent agent, high ones a less potent agent. With `COc1cccc(OC)c1-c1cc(C(=O)N[C@@H](CCC2CCCCC2)CC(=O)O)nn1C1CCCCC1`, the values for the EC50 in assay [1] and in assay [2] were 518 nM and 3260 nM, respectively.
